Results taken from ChEMBL document CHEMBL1129555, “Arylacetamide-derived fluorescent probes: synthesis, biological evaluation, and direct fluorescent labeling of kappa opioid receptors in mouse microglial cells” (J Med Chem, 1996).

By UniProt entry, the sequences of proteins in these tests, tags left out. Where a name states a change or a piece, a line headed by the entry shows the natural chain unless it says otherwise.
UniProt P41144: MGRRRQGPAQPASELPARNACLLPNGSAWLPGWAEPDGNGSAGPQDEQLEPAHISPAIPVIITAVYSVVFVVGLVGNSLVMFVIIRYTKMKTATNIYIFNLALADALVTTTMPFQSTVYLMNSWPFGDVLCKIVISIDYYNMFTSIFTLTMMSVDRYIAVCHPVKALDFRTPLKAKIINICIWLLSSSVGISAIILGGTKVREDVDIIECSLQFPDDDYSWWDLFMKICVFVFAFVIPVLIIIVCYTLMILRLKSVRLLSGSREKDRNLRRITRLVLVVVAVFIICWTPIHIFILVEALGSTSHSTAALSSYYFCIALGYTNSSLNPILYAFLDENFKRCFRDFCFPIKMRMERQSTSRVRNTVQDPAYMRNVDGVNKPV
UniProt P33534: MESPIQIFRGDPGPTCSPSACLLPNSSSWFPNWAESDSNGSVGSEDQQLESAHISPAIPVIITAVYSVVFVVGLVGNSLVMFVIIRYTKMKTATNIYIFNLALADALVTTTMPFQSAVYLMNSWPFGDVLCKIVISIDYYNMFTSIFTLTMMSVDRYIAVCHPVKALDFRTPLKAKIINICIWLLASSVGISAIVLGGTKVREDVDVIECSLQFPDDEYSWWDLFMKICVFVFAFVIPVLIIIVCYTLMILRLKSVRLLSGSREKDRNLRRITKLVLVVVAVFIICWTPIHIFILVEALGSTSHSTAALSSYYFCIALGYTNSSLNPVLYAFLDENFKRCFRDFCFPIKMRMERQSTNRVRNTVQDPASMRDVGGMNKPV

Legend:
[1] = target: Kappa-type opioid receptor (Cavia porcellus, UniProt P41144); assay: Inhibitory activity against Opioid receptor kappa 1 in electrically stimulated guinea pig longitudinal ileal muscle (GPI) preparation.
[2] = target: Kappa-type opioid receptor (Mus musculus, UniProt P33534); assay: Inhibitory activity against Opioid receptor kappa 1 in electrically stimulated mouse vas deferens (MVD) preparation.

Structure (SMILES) | IC50 [1] | IC50 [2]
CN(C(=O)Cc1ccc(Cl)c(Cl)c1)C(CN1CCCC1)c1ccc(N)cc1 (stereo unspecified) | 0.65 nM | 4.5 nM
CN(C(=O)Cc1ccc(Cl)c(Cl)c1)[C@H](CN1CCCC1)c1cccc(N)c1 | 0.17 nM | 0.12 nM
CN(C(=O)Cc1ccc(Cl)c(Cl)c1)[C@H](CN1CCCC1)c1ccccc1 | 0.27 nM | 2.5 nM
